Reference: publication PMC2923778 (Journal of Molecular Biology, 2010)

Protein sequences, listed by entry. Tags and fused reporters are not part of them.
mSPSB2 + elonginBC, UniProt P62869, whole entry, chain 2 of 3: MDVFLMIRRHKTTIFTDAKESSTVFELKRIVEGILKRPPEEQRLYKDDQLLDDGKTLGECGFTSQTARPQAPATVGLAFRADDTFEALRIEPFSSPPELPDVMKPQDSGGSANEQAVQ

Experiments:
Test in all cases: ITC; 100 μM peptide titrated into 10 μM mSPSB protein; 22 °C; 20 mM Tris, 150 mM sodium chloride, 2.5 mM calcium chloride, pH 8.0; single binding site model
Conditions in all cases: both partners purified
mSPSB2(12–224) = biological target: T1, mSPSB2(12–224) (murine, UniProt O88838 12-224)
T1 construct: murine SPSB2 (SSB-2), residues 12-224: lacks the first 11 residues and the C-terminal SOCS box; Uniformly 15N-labelled in one NMR experiment; also called mSPSB2ΔSB; 15N-mSPSB2(12–224); source: E. coli Origami B(DE3) pLysS, GST fusion, purified (glutathione-Sepharose, thrombin cleavage, gel filtration)
T1 sequence (looked up): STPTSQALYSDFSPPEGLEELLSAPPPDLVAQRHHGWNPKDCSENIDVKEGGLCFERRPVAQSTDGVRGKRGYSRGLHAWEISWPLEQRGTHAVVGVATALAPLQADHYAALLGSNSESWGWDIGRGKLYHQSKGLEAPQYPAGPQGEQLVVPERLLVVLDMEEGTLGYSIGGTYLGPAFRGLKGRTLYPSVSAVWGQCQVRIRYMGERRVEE

mSPSB2 + elonginBC = mSPSB2 + elonginBC (murine, UniProt O88838 1-264; P62869 1-118; P83940 17-112)
mSPSB2(12–224)[T198A] = biological target: T2, mSPSB2(12–224)[T198A] (murine, UniProt O88838 12-224, T198A)
T2 construct: murine SPSB2, residues 12-224, T198A; also called [T198A] mutant; source: E. coli Origami B(DE3) pLysS, GST fusion, purified (glutathione-Sepharose, thrombin cleavage, gel filtration)
T2 sequence (looked up): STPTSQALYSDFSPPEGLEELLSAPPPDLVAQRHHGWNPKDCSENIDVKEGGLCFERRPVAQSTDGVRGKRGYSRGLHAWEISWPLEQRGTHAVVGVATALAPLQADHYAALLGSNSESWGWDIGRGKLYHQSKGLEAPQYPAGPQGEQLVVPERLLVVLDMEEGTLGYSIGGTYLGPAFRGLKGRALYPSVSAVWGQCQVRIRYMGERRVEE

- Kd (mSPSB2(12–224)): 4.6 µM
- Kd (mSPSB2 + elonginBC): 4.3 µM
- Kd (mSPSB2(12–224)[T198A]): 3 µM
B1: hPar-4(59–77) (peptide)
peptide: GTPAAAAANELNNNLPGGA
notes: human prostate apoptosis response protein-4 (hPar-4), residues 59-77; Uniformly 15N-labelled in one NMR experiment; also called human prostate apoptosis response protein-4 residues 59–77; 15N-hPar-4(59–77); source: recombinant; cloning, expression and purification described in the Supplementary Data
